{"source": "patent US11135316B2", "about": "“Imaging and treatment of pathophysiologic conditions by Cerenkov radiation” (priority 2014, dated 2021)", "assay": "Solubility of Tc", "assay_type": "physicochemical", "protocol": "Synthesis of TiO2-PEG, TiO2-Tf, Tc-Tf and TiO2-Tf-Tc. Anatase TiO2 (1 mg; Sigma Aldrich Co.) was suspended in deionized water (1 ml) to prepare a working stock solution. PEG 400 (100 μl) was added to the TiO2 solution and sonicated using a probe sonicator for 10 min at room temperature (RT). The mixture was then dialyzed overnight against Dulbecco's Phosphate Buffered Saline (DPBS) using a 3000 Da molecular weight cutoff (MWCO) Slide-A-Lyzer MINI Dialysis Device (Thermo Fisher Scientific Inc.) to remove excess PEG. Working stock solutions of Tf were prepared by dissolving 5 mg of human apo-Tf (Sigma Aldrich Co.) in 1 ml DPBS, pH 7.4. To prepare TiO2-Tf, a 1:1 (v/v) solution of TiO2 and Tf was mixed and probe sonicated in continuous mode for 5 min. The solution was then immediately passed through a 0.45 μm syringe filter to isolate monodisperse nanoparticles. To prepare Tc-Tf, five-fold molar excess of Tc (Sigma Aldrich Co.) was added to human apo-Tf and incubated in a shaker for 2 h at room temperature (RT). […] The mixture was then dialyzed overnight against DPBS using a 3000 Da molecular weight cutoff (MWCO) Slide-A-Lyzer MINI Dialysis Device to remove excess Tc. TiO2-Tf-Tc was similarly prepared by incubating Tc with TiO2-Tf conjugates and thereafter dialyzing to remove excess Tc. […]"}
{"substance": "Titanocene dichloride [Tc]", "values": [{"measurement": "solubility in water and aqueous buffers", "value": "low solubility"}]}
